Target: Recombinant human cathepsin S (CatS) (Homo sapiens, UniProt P25774)
Test: Recombinant human cathepsin S (CatS) inhibition assay, fluorogenic substrate Z-Valine-Valine-Arginine-AMC;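 further: Baculovirus-expressed CatS in pH 5.0 sodium acetate buffer with DTT and NaCl, fluorescence read each minute over 20 min, inhibition derived from rate slope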

Sequences of proteins named here, by UniProt entry; tags and fusion partners are left off. Residues count along the entry.
UniProt P25774, 115-331: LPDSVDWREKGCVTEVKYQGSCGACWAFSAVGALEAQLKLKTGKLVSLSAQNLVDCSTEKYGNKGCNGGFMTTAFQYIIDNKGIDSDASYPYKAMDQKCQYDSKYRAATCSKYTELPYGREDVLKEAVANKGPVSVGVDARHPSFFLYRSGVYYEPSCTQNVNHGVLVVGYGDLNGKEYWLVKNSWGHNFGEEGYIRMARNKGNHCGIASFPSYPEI

SMILES: O=C(CO)N1CCc2c(c(-c3ccc(Cl)c(C#Cc4ccc(Cl)cc4)c3)nn2CCCN2CCOCC2)C1 [Example 143, 1-[3-[4-Chloro-3-(4-chloro-phenylethynyl)-phenyl]-1-(3-morpholin-4-yl-propyl)-1,4,6,7-tetrahydro-pyrazolo[4,3-c]pyridin-5-yl]-2-hydroxy-ethanone]
- IC50: 0.22 µM

SMILES: CS(=O)(=O)N1CCc2c(c(-c3ccc(Cl)c(C#CCO)c3)nn2CCCN2CCOCC2)C1 [Example 44, 3-{2-Chloro-5-[5-methanesulfonyl-1-(3-morpholin-4-yl-propyl)-4,5,6,7-tetrahydro-1H-pyrazolo[4,3-c]pyridin-3-yl]-phenyl}-prop-2-yn-1-ol]
- IC50: 7.85 µM
